Source: patent US20090214547A1

Tests used:
Peptide GNT-14 [1] = assay: peptide ELISA, plate 1 overview
Peptide GNT-13 [2] = assay: peptide ELISA, plate 1 overview
Peptide GNT-08 [3] = assay: peptide ELISA, plate 1 overview
Peptide GNT-07 [4] = assay: peptide ELISA, plate 1
Peptide GNT-062 = assay: peptide ELISA, plate 2 overview
Peptide GNT-04 = assay: peptide ELISA, plate 2 overview
Peptide GNT-14 [5] = assay: peptide ELISA, plate 2 overview
Peptide GNT-13 [6] = assay: peptide ELISA, plate 2 overview
Peptide GNT-10 = assay: peptide ELISA, plate 2 overview
Peptide GNT-08 [7] = assay: peptide ELISA, plate 2 overview
Peptide GNT-07 [8] = assay: peptide ELISA, plate 2

B1: 26-5F12.1 (antibody, V domains shown)
VH: VKLQESGAEVKKPGASVKVSCTASGYIFTSYAIHWVRQAPGQRLEWMGWINAGYGNTKYSQKFQGRVSITRDKSASTAYMELSSLRSEDTAVYYCARRGQQLAFDYWGQGTTVTVSS
VL: [about 100 residues omitted here]
Elisa reading (Peptide GNT-14 [1]): 0.09
Elisa reading (Peptide GNT-13 [2]): 0.09
Elisa reading (Peptide GNT-08 [3]): 0.89
Elisa reading (Peptide GNT-07 [4]): 0.6 and 0.21 and 0.47
Elisa reading (Peptide GNT-062): 0.11
Elisa reading (Peptide GNT-04): 0.26
Elisa reading (Peptide GNT-14 [5]): 0.09
Elisa reading (Peptide GNT-13 [6]): 0.09
Elisa reading (Peptide GNT-10): 0.09
Elisa reading (Peptide GNT-08 [7]): 0.76
Elisa reading (Peptide GNT-07 [8]): 0.132

Several values for one entry are separate records, joined by “and”; a condition that tells them apart may be missing. Equal entries are not always repeated.
